Assay results from US20240139185A1, “COMPOUNDS THAT PARTICIPATE IN COOPERATIVE BINDING AND USES THEREOF” (Revolution Medicines, Inc., priority 2018, published 2024).
pEC50, pIC50, pKd: −log10 of the molar value.

Experiments:
[1] = tested on: pERK in H358 cells; test: pERK inhibition in H358 cells; settings: read-out: Cellular pERK inhibition, 4 hours treatment
Description: H358 cells (5500 cells) derived from a human lung cancer were plated in a 96 well plate in media (100 uL, RPMI with 10% FBS). After 24 hours, cells were treated for 4 hours with compound or DMSO. Cells were washed twice with room temperature TBS (200 uL) and fixed for 20 minutes with 4% paraformaldehyde diluted with TBS (150 uL). Cells were washed four times for five minutes with 0.1% TritonX/TBS (150 uL) to permeabilize the membrane. Cells were incubated with TBS blocking buffer (100 uL) at room temperature for 60 minutes. Primary antibody (Phospho-p44/42 MAPK (Erk1/2) (Thr202/Tyr204) (D13.14.4E) XP® Rabbit mAb #4370, Cell Signaling Technology; 1:200) was added, and the cells were incubated overnight at 4 C. The cells were washed four times for five minutes with 0.1% Tween 20/TBS (150 uL). Secondary antibody (IRDye® 800CW Goat-Anti-Rabbit IgG, Li-Cor Biosciences; 1:1000) and DRAQ5™ (Invitrogen; 1:2000) was added, and the cells were incubated for 1 hour at room temperature. The cells were washed four times for five minutes with 0.1% Tween 20/TBS (150 uL) and scanned using the LICOR (700 and 800 nm).

[2] = target: cyclophilin A (CYPA) (Homo sapiens, UniProt P62937); test: CYPA-compound binary complex formation by SPR; settings: read-out: CYPA Binding Affinity
Description: In order to determine the affinity of compounds of the invention for cyclophilin A (CYPA), we employed surface plasmon resonance binding analysis using the following reagents, instruments and protocol as supplied by the instrument manufacturer.
Reagents and Instrument • 1. Instrument: Biacore S200 (GE Healthcare Life Sciences) • 2. Running buffer: 1×HBS-P+ (1×HBS supplemented with 0.05% Tween20), pH7.4, and 2% DMSO. • 3. Ligand: CypA-Avi • 4. Analyte: Serial dilution of WDB compounds from 50 μM to 0 μM, 2-fold dilution, 10 points (10 mM stock concentration). • 5. Sensor kit: Biotin CAPture Kit (BR28-9202-34, GE Healthcare Life Sciences) • 6. Regeneration buffer: 1 volume of 1 M NaOH and 3 volumes of 8 M guanidine hydrochloride (supplied with CAPture Kit, BR28-9202-34, GE Healthcare Life Sciences)
Experimental Procedure • 1. Capture of CAPreagent: 2 μl/min for 60 seconds. • 2. Immobilization of ligand CypA: Use Fc1 as the reference cell; immobilize CypA at 4 μg/ml using 5 μl/min flowrate on Fc2 (60s), Fc3 (80s) and Fc4 (80s), respectively. • 3. Binding of analytes: Inject WDB compound dilutions sequentially at 50 μl/min for association of 60 seconds. And then let it dissociates in buffer at 50 μl/min for 60 seconds. • 4. Regeneration: 2 injections of regeneration buffer at 30 μl/min for 60 seconds to regenerate the chip surface. • 5. Solvent correction: Run solvent correction at beginning and the end of the run. If run more than 6 compounds, add additional solvent correction every 6 compounds. • 6. Data fitting with built-in Biacore Evaluation Software: Steady-state fitting.

[3] = target: BRAF-GTP-KRAS-G12C complex (Homo sapiens, UniProt P01116+P62937, G12C); test: KRAS-BRAF complex disruption through competition with CYPA-compound by TR-FRET; settings: read-out: BRAF-GTP-KRAS-G12C Disruption; biochemical BRAF-KRAS G12C-GTP disruption assay EC50, with CYPA
Description: In this example, TR-FRET was used to measure the compound-facilitated disruption of a KRAS-BRAF complex. A mixture of tagless Cyclophilin A, His6-KRAS G12C-GMP-PNP, and GST-BRAF RAS binding domain was added to a 384-well assay plate containing compounds of the invention and incubated for 3 hours. A mixture of Anti-His Eu-W1024 and anti-GST allophycocyanin was then added and the reaction was incubated for an additional 1.5 hours. TR-FRET signal was read on an EnVision microplate reader (Perkin Elmer, Ex 320 nm, Em 665/615 nm). Compounds that facilitate disruption of a KRAS_BRAF complex were identified as those eliciting a decrease in the TR-FRET ratio relative to DMSO control wells. To determine the presenter-dependence of the compound-mediated KRAS-BRAF complex disruption, Cyclophilin A was left out of the initial incubation (see Table 5). To determine G12C specificity of the compound-mediated KRAS-BRAF complex disruption, wild-type KRAS was used instead of G12C KRAS (see Table 5).
Reagents and Instrument • Tagless CYPA; 519 μM in PBS buffer, pH 7.4 • GST BRAF; 110 μM in PBS buffer, pH 7.4 • His6-KRASG12C-GMP-PNP; 50 μM in PBS buffer, pH 7.4 • His6-KRASWT-GMP-PNP; 40 μM in PBS buffer, pH 7.4 • Anti-His Eu-W1024 (LANCE® Eu-W1024; Perkin Elmer) • Anti-GST allophycocyanin (Anti-GST IgG conjugated to SureLight®-Allophycocyanin; Perkin Elmer; Product Number AD0059G) • Test compounds, 10 mM in 100% DMSO • EnVision (Perkin Elmer) • Combi MultiDrop liquid dispenser with 8-channel small volume cassette • 384-well ProxiPlate (black)
Experimental Protocol • 1. Use Mosquito to dispense 100 nL/well of compounds (varying concentration in […]) into 384-well black ProxiPlate to make assay-ready-plate (ARP). • 2. Make assay buffer containing 25 mM Hepes pH 7.3, 100 mM NaCl, 5 mM MgCl2, 0.05% BSA, and 0.002% Tween-20. • 3. Make PRE-MIX A: delivers final concentrations of 50 nM of His6-KRas G12C-GTP (1-169) and 500 nM of tagless CypA (1-165) in assay buffer. • a. For presenter dependence experiments, omit addition of tagless CypA • b. For G12C/wt specificity experiments, substitute His6-KRas WT-GTP (1-169) for His6-KRas G12C-GTP (1-169) • 4. Use MultiDrop Combi to dispense PRE-MIX A into ARP, 7 μl/well. Incubate 3 hr at room temperature. • 5. Make PRE-MIX B: delivers final concentrations of 10 nM of anti-His Eu-W1024 and 50 nM of anti-GST APC. • 6. Use MultiDrop Combi to dispense PRE-MIX B into ARP, 3 μl/well. Shake briefly on Combi and incubate 1.5 hr at room temperature. • 7. Read on EnVision (Ex: 320 nm; Em1: 615 nm; Em2: 665 nm). • 8. Data is processed using Dotmatics. Curves are fit using a 4-parameter non-linear fit to determine the EC50 value for formation of the ternary complex.

Row | pIC50 [1] | pKd [2] | pEC50 [3] | Structure (SMILES)
1 | < 5.00 | 4.82 to 5.30 | – | C=CC(=O)N1CCC(F)(C(=O)N(C)[C@H](C(=O)N[C@H]2Cc3cc(O)cc(c3)-c3ccc4c(C(C)(C)C#N)cn(c4c3)CC(C)(C)COC(=O)[C@@H]3CCCN(N3)C2=O)C(C)C)C1 (stereo partly drawn)
2 | < 5.00 | > 5.30 | – | CC(C)[C@@H](C(=O)N[C@H]1Cc2cc(O)cc(c2)-c2ccc3c(c2)N(C[C@H](C)COC(=O)[C@@H]2CCCN(N2)C1=O)CC3(C)Cn1cccn1)N(C)C(=O)C1CN(C(=O)[C@@H](C)Cl)C1 (single isomer, unassigned)
3 | < 5.00 | 4.82 to 5.30 | – | C=CC(=O)N1CCC(C(=O)N(C)[C@H](C(=O)N[C@H]2Cc3cc(O)cc(c3)-c3ccc4c(C(C)(C#N)C5CCOCC5)cn(c4c3)CC(C)(C)COC(=O)[C@@H]3CCCN(N3)C2=O)C(C)C)C1 (stereo partly drawn)
4 | > 6.00 | > 5.30 | – | COCC1(C)CN2C[C@H](C)COC(=O)[C@@H]3CCCN(N3)C(=O)[C@@H](NC(=O)[C@H](C(C)C)N(C)C(=O)C3CN(C(=O)CCl)C3)Cc3cc(O)cc(c3)-c3ccc1c2c3 (stereo partly drawn)
5 | < 5.00 | 4.82 to 5.30 | – | C[C@@H](Cl)C(=O)N1CC(C(=O)N(C)[C@H](C(=O)N[C@H]2Cc3cc(O)cc(c3)-c3ccc4c(C(C)(C)C#N)cn(c4c3)CC(C)(C)COC(=O)[C@@H]3CCCN(N3)C2=O)C2CC2)C1
6 | < 5.00 | > 5.30 | – | CC(C)[C@@H](C(=O)N[C@H]1Cc2cc(O)cc(c2)-c2ccc3c(-c4ccc5c(c4)C(=O)NC5)cn(c3c2)CC(C)(C)COC(=O)[C@@H]2CCCN(N2)C1=O)N(C)C(=O)C1CN(C(=O)[C@@H](C)Cl)C1
7 | > 6.00 | 4.82 to 5.30 | – | CC(C)[C@@H](C(=O)N[C@H]1Cc2cc(O)cc(c2)-c2ccc3c(C(C)(C)C#N)cn(c3c2)CC(C)(C)COC(=O)[C@@H]2CCCN(N2)C1=O)N1CCC2(CCN(C(=O)CCl)C2)C1=O (stereo partly drawn)
8 | < 5.00 | – | < 5.30 | C=CC(=O)N1CC[C@H](C(=O)N(C)[C@H](C(=O)N[C@H]2Cc3cc(O)cc(c3)-c3ccc4c(-c5cccc(C(=O)OC)c5)cn(c4c3)CC(C)(C)COC(=O)[C@@H]3CCCN(N3)C2=O)C(C)C)C1
9 | < 5.00 | – | < 5.30 | CC1COC(=O)[C@@H]2CCCN(N2)C(=O)[C@@H](NC(=O)[C@H](C(C)C)N(C)C(=O)C2CN(C(=O)[C@@H](C)Cl)C2)Cc2cc(O)cc(c2)-c2ccc3c(c2)c(cn3C(C)(C)C#N)C1 (single isomer, unassigned) [311]
10 | > 6.00 | – | 5.30 to 6.30 | C=CC(=O)N1CC[C@H](C(=O)N(C)[C@H](C(=O)N[C@H]2Cc3cc(O)cc(c3)-c3ccc4c(c3)c(c(C#N)n4CC)CC(C)COC(=O)[C@@H]3CCCN(N3)C2=O)C(C)C)C1 (single isomer, unassigned) [372]
11 | 5.00 to 6.00 | – | 5.30 to 6.30 | C=CC(=O)N1CC[C@H](C(=O)N(C)[C@H](C(=O)N[C@H]2Cc3cc(O)cc(c3)-c3ccc4c(-c5ccccc5C(=O)OC)cn(c4c3)CC(C)(C)COC(=O)[C@@H]3CCCN(N3)C2=O)C(C)C)C1
12 | < 5.00 | – | 5.30 to 6.30 | C=CC(=O)N1CC[C@H](C(=O)N(C)[C@H](C(=O)N[C@H]2Cc3cc(O)cc(c3)-c3ccc4c(c3)N(CC(C)(C)COC(=O)[C@@H]3CCCN(N3)C2=O)CC42COc3ccccc32)C(C)C)C1 (single isomer, unassigned) [401]
13 | 5.00 to 6.00 | – | 5.30 to 6.30 | C=CC(=O)N1CCC2(CCCN([C@H](C(=O)N[C@H]3Cc4cc(O)cc(c4)-c4ccc5c(C(C)(C)C#N)cn(c5c4)CC(C)(C)COC(=O)[C@@H]4CCCN(N4)C3=O)C(C)C)C2=O)C1 (single isomer, unassigned) [360]
14 | < 5.00 | – | 5.30 to 6.30 | C=CC(=O)N1CC[C@H](C(=O)N(C)[C@H](C(=O)N[C@H]2Cc3cc(O)cc(c3)-c3ccc4c(c3)c(cn4-c3c(Br)cccc3C#N)CC(C)COC(=O)[C@@H]3CCCN(N3)C2=O)C(C)C)C1 (single isomer, unassigned) [383]
15 | < 5.00 | – | < 5.30 | CC(C)[C@@H](C(=O)N[C@H]1Cc2cc(O)cc(c2)-c2ccc3c(C(C)(C)C#N)cn(c3c2)CC(C)(C)COC(=O)[C@@H]2CCCN(N2)C1=O)N(C)C(=O)C1CCN(C(=O)[C@H](C)Cl)CC1
16 | < 5.00 | – | < 5.30 | CC(C)[C@@H](C(=O)N[C@H]1Cc2cc(O)cc(c2)-c2ccc3ccn(c3c2F)C[C@H](C)CNC(=O)[C@@H]2CCCN(N2)C1=O)N(C)C(=O)C1CN(C(=O)CCl)C1
17 | < 5.00 | > 5.30 | – | CC(C)[C@@H](C(=O)N[C@H]1Cc2cc(O)cc(c2)-c2ccc3c(-c4cccc5c4CNC5=O)cn(c3c2)CC(C)(C)COC(=O)[C@@H]2CCCN(N2)C1=O)N(C)C(=O)C1CN(C(=O)[C@@H](C)Cl)C1
18 | 5.00 to 6.00 | – | 5.30 to 6.30 | CC(C)[C@@H](C(=O)N[C@H]1Cc2cc(O)cc(c2)-c2ccc3c(C(C)(C)C#N)cn(c3c2)CC(C)(C)COC(=O)[C@@H]2CCCN(N2)C1=O)N(C)C(=O)C1CCN(C(=O)[C@@H](C)Cl)CC1
19 | > 6.00 | – | > 6.30 | CC(C)[C@@H](C(=O)N[C@H]1Cc2cc(O)cc(c2)-c2ccc3c(-c4ccccc4CC#N)cn(c3c2)CC(C)(C)COC(=O)[C@@H]2CCCN(N2)C1=O)N(C)C(=O)C1CN(C(=O)CCl)C1
20 | < 5.00 | – | > 6.30 | CC(C)[C@@H](C(=O)N[C@H]1Cc2cc(O)cc(c2)-c2ccc3cc(Cc4cccnc4)n(c3c2)C[C@H](C)COC(=O)[C@@H]2CCCN(N2)C1=O)N(C)C(=O)C1CN(C(=O)CCl)C1
21 | < 5.00 | – | < 5.30 | C=CC(=O)N1CC[C@H](C(=O)N(C)[C@H](C(=O)N[C@H]2Cc3cc(O)cc(c3)-c3ccc4c(c3)N(CC(C)(C)COC(=O)[C@@H]3CCCN(N3)C2=O)CC4(C)C#Cc2cccnc2)C(C)C)C1 (single isomer, unassigned)
